# Values quoted from earlier work as cited in paper PMC9488713 (ACS chemical biology, 2022).
# Conditions: oral semaglutide formulated with permeation enhancer SNAC; cited from earlier work
substance,measurement,value
semaglutide,bioavailability after oral administration,0.8%
